Values of other authors in patent publication US20190119649A1, “METHODS FOR GENERATING AUGMENTED STEM CELL-DERIVED BETA CELLS AND USES THEREOF” (President and Fellows of Harvard College, priority 2014, published 2019).
Like-named read-outs stand apart in the source and are kept apart here.

The chains behind the UniProt entries cited, without tags or fusion partners. Residues count along the entry.
UniProt P30530, 26-894 limits assumed: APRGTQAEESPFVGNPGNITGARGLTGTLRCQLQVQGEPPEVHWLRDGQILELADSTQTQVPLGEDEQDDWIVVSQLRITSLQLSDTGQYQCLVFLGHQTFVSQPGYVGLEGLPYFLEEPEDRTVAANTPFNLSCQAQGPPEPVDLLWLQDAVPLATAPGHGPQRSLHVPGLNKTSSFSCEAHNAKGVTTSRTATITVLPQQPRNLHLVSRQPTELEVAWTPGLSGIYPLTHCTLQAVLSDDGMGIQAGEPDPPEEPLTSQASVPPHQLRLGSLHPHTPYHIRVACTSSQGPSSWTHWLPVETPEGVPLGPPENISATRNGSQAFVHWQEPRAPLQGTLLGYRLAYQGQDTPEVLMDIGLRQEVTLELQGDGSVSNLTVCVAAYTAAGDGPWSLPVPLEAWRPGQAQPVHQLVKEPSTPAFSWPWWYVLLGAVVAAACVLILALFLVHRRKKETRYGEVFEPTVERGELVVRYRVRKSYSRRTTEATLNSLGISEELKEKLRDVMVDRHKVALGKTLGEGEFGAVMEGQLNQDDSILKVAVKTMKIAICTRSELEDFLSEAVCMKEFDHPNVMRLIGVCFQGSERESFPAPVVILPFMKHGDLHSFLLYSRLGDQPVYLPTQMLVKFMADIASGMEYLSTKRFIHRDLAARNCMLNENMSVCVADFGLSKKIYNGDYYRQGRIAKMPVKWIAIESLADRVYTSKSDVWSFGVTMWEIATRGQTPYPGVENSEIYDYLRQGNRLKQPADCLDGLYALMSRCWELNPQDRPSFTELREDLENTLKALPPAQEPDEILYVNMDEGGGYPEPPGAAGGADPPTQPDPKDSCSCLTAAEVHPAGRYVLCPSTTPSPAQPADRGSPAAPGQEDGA

Key:
AXL kinase [1] = target: T1, AXL kinase (Homo sapiens, UniProt P30530); conditions: cited from earlier work
AXL kinase [2] = target: T1, AXL kinase; conditions: read-out: AXL kinase IC50, cited from earlier work
PSN-1 = conditions: read-out: Cell viability IC50 PSN-1; PSN-1 cells; cited from earlier work
[3] = amide- and sulfonamide-containing inhibitors, Table 2
[4] = 5-alkylpyrimidine-based inhibitors, Table 1
[5] = docking parameter, 5-alkylpyrimidine-based inhibitors, Table 1

SMILES	Binding energy (AXL kinase [1]; [3])	also measured
CN1CCN(Cc2ccc(Nc3ncc(Cl)c(Nc4ccc(Cl)cc4S(=O)(=O)N4CCCC4)n3)cc2)CC1	-28.21 kcal/mol	–
CN1CCN(Cc2ccc(Nc3ncc(Cl)c(N(C)c4ccc(F)cc4S(=O)(=O)N4CCCC4)n3)cc2)CC1	–	IC50 (AXL kinase [2]; [3]): 3910 nM
Cc1cnc(Nc2ccc(CN3CCN(C)CC3)cc2)nc1-c1cccc(Cl)c1	–	IC50 (AXL kinase [2]; [4]): 440 nM
CN1CCN(Cc2ccc(Nc3ncc(Cl)c(Nc4ccccc4C(=O)NC4CC4)n3)cc2)CC1	-39.21 kcal/mol	–
CN1CCN(Cc2ccc(Nc3ncc(C4CC4)c(-c4ccc(F)c(Cl)c4)n3)cc2)CC1	–	Binding energy (AXL kinase [1]; [5]): -26.92 kcal/mol
CN1CCN(Cc2ccc(Nc3ncc(Cl)c(Nc4ccccc4C(=O)N(C)C)n3)cc2)CC1	-33.29 kcal/mol	–
Cc1cnc(Nc2ccc(N3CCN(C)CC3)c(F)c2)nc1-c1ccc(F)cc1	–	Binding energy (AXL kinase [1]; [5]): -31.24 kcal/mol
Cc1cnc(Nc2ccc(N(C)C3CCN(C)CC3)cc2)nc1-c1ccc(F)c(Cl)c1	–	IC50 (AXL kinase [2]; [4]): 420 nM; Binding energy (AXL kinase [1]; [5]): -34.26 kcal/mol
Cc1cnc(Nc2ccc(OCCN3CCCCC3)cc2)nc1-c1ccc(F)c(Cl)c1	–	Binding energy (AXL kinase [1]; [5]): -21.81 kcal/mol
CN1CCN(Cc2ccc(Nc3ncc(C(F)(F)F)c(Nc4ccccc4C(=O)N(C)C)n3)cc2)CC1	-26.21 kcal/mol	–
CN1CCN(Cc2ccc(Nc3ncc(Cl)c(Nc4ccccc4S(=O)(=O)N(C)C)n3)cc2)CC1	–	IC50 (PSN-1): 6 nM
CN1CCN(Cc2ccc(Nc3ncc(Cl)c(-c4ccc(F)cc4S(=O)(=O)N4CCCC4)n3)cc2)CC1	-40.96 kcal/mol	–
CN1CCN(Cc2ccc(Nc3ncc(Cl)c(Nc4ccc(F)cc4S(=O)(=O)N4CCOCC4)n3)cc2)CC1	-41.26 kcal/mol	–
CN1CCN(Cc2ccc(Nc3ncc(Cl)c(Nc4ccccc4S(=O)(=O)N4CCCC4)n3)cc2)CC1	-49.89 kcal/mol	–
Cc1cnc(Nc2ccc(CN3CCN(C)CC3)cc2)nc1-c1ccc(F)c(Cl)c1	–	Binding energy (AXL kinase [1]; [5]): -38.24 kcal/mol
CN1CCN(Cc2ccc(Nc3ncc(Cl)c(Nc4ccccc4C(=O)N4CCCC4)n3)cc2)CC1	-38.12 kcal/mol	–
CN1CCN(Cc2ccc(Nc3ncc(Cl)c(Nc4ccc(F)cc4S(=O)(=O)N4CCCC4)n3)cc2)CC1	-37.87 kcal/mol	–
Cc1cnc(Nc2ccc(N3CCN(C)CC3)c(F)c2)nc1-c1ccc(F)c(Cl)c1	–	Binding energy (AXL kinase [1]; [5]): -26.67 kcal/mol
CN1CCN(c2ccc(Nc3ncc(Cl)c(Nc4ccccc4S(=O)(=O)N(C)C)n3)cc2)CC1	-29.34 kcal/mol	–
Cc1cnc(Nc2ccc(CN3CCN(C)CC3)cc2)nc1-c1ccc(C(C)(C)C#N)cc1	–	IC50 (AXL kinase [2]; [4]): 290 nM
CN1CCN(Cc2ccc(Nc3ncc(Cl)c(-c4ccc(F)cc4S(=O)(=O)N(C)C)n3)cc2)CC1	-41.87 kcal/mol	–
CN1CCN(Cc2ccc(Nc3ncc(Cl)c(Nc4ccc(O)cc4S(=O)(=O)N4CCCC4)n3)cc2)CC1	-29.21 kcal/mol	IC50 (AXL kinase [2]; [3]): 1320 nM
CN1CCN(Cc2ccc(Nc3ncc(F)c(-c4ccc(F)cc4S(=O)(=O)N4CCCC4)n3)cc2)CC1	-29.67 kcal/mol	IC50 (AXL kinase [2]; [3]): 1150 nM
CN1CCC(N(C)c2ccc(Nc3ncc(Cl)c(Nc4ccccc4S(=O)(=O)N(C)C)n3)cc2)CC1	-36.84 kcal/mol	–
Cc1cnc(Nc2ccc(CN3CCN(C)CC3)cc2)nc1-c1ccc(F)cc1S(=O)(=O)N1CCCC1	-29.14 kcal/mol	–
